# AlphaSeq binding of Ab-14 heavy chain variants to a spike HR2 peptide

Antigen: PDVDLGDISGINAS, a 14-residue peptide of the SARS-CoV-2 spike HR2 region.

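The parent was found by panning a naive human phage display library on the peptide. The variants were designed computationally from a first round of random CDR variants and then made and measured. Group labels follow the data file (Ctrl: baseline library sampled from a position-specific scoring matrix, with some repeated check sequences; En: ensemble of fine-tuned language models; GP: Gaussian process model; GPLM: also part of the Gaussian process libraries; HC: hill climbing; Gen: genetic algorithm; Gibbs: Gibbs sampling; a sequence that several methods proposed may carry one label only). The assay is AlphaSeq: two haploid yeast populations carry antibody and antigen on their surface. Pairs that bind mate more often; barcode pairs of the diploids are counted by sequencing. A regression on co-assayed BCL2-family reference pairs converts the normalised counts of each replicate to an apparent Kd. There are six technical replicates.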

Ab-14 is the parent antibody, in scFv form: VH, then the linker GGGGSGGGGSGGGGS, then VL. The light chain is unchanged in all variants.
VH: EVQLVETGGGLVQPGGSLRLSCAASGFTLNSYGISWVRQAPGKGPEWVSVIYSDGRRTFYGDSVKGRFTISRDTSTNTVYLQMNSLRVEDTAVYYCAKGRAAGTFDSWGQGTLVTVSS
VL: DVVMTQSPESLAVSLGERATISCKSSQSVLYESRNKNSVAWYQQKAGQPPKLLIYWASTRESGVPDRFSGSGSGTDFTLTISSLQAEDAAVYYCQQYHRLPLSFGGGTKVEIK

Variants are written as CDR1, CDR2 and CDR3 of the heavy chain (limits as in the source). Parent: GFTLNSYGIS, VIYSDGRRTFYGDSVK, GRAAGTFDS. Values are log10 of the apparent Kd in nM; lower means stronger binding. A mean of the replicates is given; it leaves out those without a signal. A pair that was not seen in that replicate is written "n.d."; this usually means weak binding, but a binder can also be missed. The list is sorted by this average, lowest first, undetected variants last. The authors averaged sequences with at least three values out of six and counted those with two or fewer as poor binders. Values of this round are not directly comparable with the first-round values of the same sequences. Empty control strains, which show no peptide, gave a signal in 1% of pairings with all heavy chain designs; the median was 2.08 and 95% of these signals were weaker than 0.84. No background was subtracted. For each scFv, signals with the empty controls are counted beside the result, with their mean in brackets.

log10 Kd, replicates | log10 Kd (nM), mean | control signals | CDR-H1 | CDR-H2 | CDR-H3 | group
-0.86 -0.21 -0.82 -0.89 -0.91 -1.22 | -0.82 | 0/18 | GFDINEYGIS | VIYADGRRTFYADSVK | GQNAGTFDS | En_HC
-0.54 -0.46 -0.60 -1.11 -1.04 -0.56 | -0.72 | 0/18 | GFDLDEYGIS | VIYADGMRTFYSDSVK | GSTAGTFDV | En_HC
-0.42 -0.45 -0.55 -0.80 -0.70 -0.57 | -0.58 | 0/18 | GFDLNEYGIS | VIYADGRRTFYADSVK | GQVAGTFDQ | En_HC
-0.16 -0.56 -0.90 -0.84 -0.60 -0.30 | -0.56 | 0/18 | GFKLDEYGIS | VIYADGRRTFYADSVK | GEAAGTFDI | En_HC
-0.45 -0.83 -0.28 -0.94 0.25 -0.73 | -0.50 | 0/18 | GFDLNEYGIS | VIYADGRRTFYADSVK | GNAAGTFDL | En_HC
-0.44 -0.24 -0.60 -0.69 -0.25 -0.41 | -0.44 | 0/18 | GFDLNEYGIS | VIYADGRRTAYSDSVK | GNTAGTFDQ | En_Gen
-0.40 -0.26 -0.40 -0.41 -0.27 -0.34 | -0.35 | 0/18 | GFDLNEYGIS | VIYADGKRTAYADDVK | GENAGTFDV | En_Gen
-0.46 0.92 0.05 -0.93 -0.64 n.d. | -0.21 | 0/18 | GFDLDEYGIS | VIYADGRRTFYADSVK | GELAGTFDL | En_HC
-0.35 -0.04 0.01 -0.56 -0.15 0.01 | -0.18 | 0/18 | GFDLNEYGIS | VIYADGMRTVYADSVK | GTAAGTFDQ | En_HC
0.08 -0.05 -0.09 -0.46 -0.21 -0.26 | -0.17 | 0/18 | GFDLNEYGIS | VIYADGRRTFYADSVK | GSNGGTFDV | En_HC
-0.09 0.09 0.12 -0.44 -0.52 -0.13 | -0.16 | 0/18 | GFGLNSYGIS | VIYADGRRTFYGDSVK | GKAAGTFDS | GPLM_Gen
0.22 -0.04 -0.23 -0.14 0.15 0.23 | 0.03 | 1/18 (2.26) | GFGLNEYGIS | VIYSDGRRTFYTDSVK | GRAAGTFDS | GP_HC
0.14 0.68 0.21 -0.04 0.36 0.49 | 0.30 | 1/18 (1.88) | GFSLNEYGIS | VIYSDGRRTFYGDSVK | GEAAGTFDS | GPLM_Gen
-0.25 1.04 0.03 0.31 0.42 1.02 | 0.43 | 0/18 | GFTLNSYGIS | VIYSDGRRTFYSDAVK | GKEAGTFDS | GP_Gibbs
2.31 0.53 -0.15 0.09 0.73 0.70 | 0.70 | 0/18 | GFELNNYGIS | VIYSDGRRTFYGDAVK | GRTAGTFDS | GP_Gen
0.88 1.45 0.40 0.45 0.52 0.68 | 0.73 | 0/18 | GFTLNSYGIS | VIYADGRRTFYGDSVK | GWAAGTFDS | GPLM_Gen
1.30 0.93 0.77 0.00 0.83 0.60 | 0.74 | 0/18 | GFDINEYGIS | VIYADGRRTFYTDSVK | GNNAGTFDV | En_HC
1.39 0.73 0.71 1.39 0.61 -0.01 | 0.80 | 0/18 | GFKLDEYGIS | VIYADGLRMHYANSVK | GEVAGTFTT | En_Gibbs
n.d. 1.61 0.15 n.d. n.d. 0.79 | 0.85 | 0/18 | GQDIEHYGIS | VIYADGKRSGYSNAVK | GQQAGTFNT | En_Gibbs
n.d. n.d. 1.82 1.72 n.d. 1.56 | 1.70 | 2/18 (1.97) | GFSLNSYGIS | VIYSDGRRTFYKDSVK | GWAAGTFDN | GP_Gibbs
1.26 n.d. n.d. 1.88 n.d. 2.10 | 1.75 | 1/18 (3.23) | GFDLEEYGIS | VIYADGMRTQYINAVK | GIAGDIMDL | En_Gibbs
n.d. n.d. n.d. n.d. 1.80 n.d. | 1.80 | 0/18 | GFDLEEYGIS | VIYADGMRQYAQDNVK | GLISGTGKT | En_Gibbs
n.d. n.d. n.d. n.d. n.d. 1.91 | 1.91 | 0/18 | GQSLDEYGIS | VIYADGQRKSYMDSVK | GNGQGTLFD | En_Gibbs
2.20 1.73 2.15 1.52 2.74 2.89 | 2.21 | 1/18 (2.03) | GFTLNEYGIS | VIYSDGRRTFYRDSVK | GRAAKTFMS | Ctrl
n.d. n.d. 1.84 n.d. n.d. 2.97 | 2.41 | 0/18 | GFDLGEYGVS | VIYADGTRAQYANKVK | GNISYAFTV | En_Gibbs
n.d. n.d. n.d. n.d. 4.19 n.d. | 4.19 | 0/18 | GFTLNSYGIS | VIYADGRRTFYGDSVK | GRNAGTSDT | Ctrl
n.d. n.d. n.d. n.d. n.d. n.d. | n.d. | 0/18 | GFDLDEYGIS | VIYADGIRQYYVDNVK | GLLAGHTIT | En_Gibbs
n.d. n.d. n.d. n.d. n.d. n.d. | n.d. | 0/18 | SFSLNSYGIS | VIYSDGRRTFYADSVK | GKAAGTFDS | GPLM_Gen
n.d. n.d. n.d. n.d. n.d. n.d. | n.d. | 0/18 | GFSLNEYGIS | VIYADGMRTYYTESVK | GLINDQLFV | En_Gibbs
n.d. n.d. n.d. n.d. n.d. n.d. | n.d. | 0/18 | GFSLDEMGIS | VIYADGQRTFYQASVK | GQNSGTVFV | En_Gibbs
n.d. n.d. n.d. n.d. n.d. n.d. | n.d. | 0/18 | GFTLESYGIS | VIYADGRRTFYGDSVK | GRQAGTFDS | GP_HC
n.d. n.d. n.d. n.d. n.d. n.d. | n.d. | 0/18 | GENLEEYGIS | VIYADGIREQYTDQVK | GEQGGYFNT | En_Gibbs
n.d. n.d. n.d. n.d. n.d. n.d. | n.d. | 0/18 | GFNLNSYGIS | VIYSDGMRTFYGNSVK | GRAAGDTDS | Ctrl
n.d. n.d. n.d. n.d. n.d. n.d. | n.d. | 0/18 | GFCLNSYGIS | VIYSDGRRTFYGDSVK | GLAAQTFDN | Ctrl
n.d. n.d. n.d. n.d. n.d. n.d. | n.d. | 0/18 | GFTINSYGIS | VIYSDGRRTFYGDSVK | GRSAGTFSS | Ctrl
n.d. n.d. n.d. n.d. n.d. n.d. | n.d. | 0/18 | GNDLNEYGIS | VIYADGIRTNYSQNVK | GTNGDTFTQ | En_Gibbs
n.d. n.d. n.d. n.d. n.d. n.d. | n.d. | 0/18 | GLALNSYGIS | VIYSDGRRTFYYDDVS | GAAAGTFDS | Ctrl
n.d. n.d. n.d. n.d. n.d. n.d. | n.d. | 0/18 | GFTLNDYGIS | VIYSDGRRTFYGDSVK | GRAAGTFTK | GPLM_HC

The opening 6 entries, copied out:

| CDR-H1 | CDR-H2 | CDR-H3 | group | log10 Kd, replicates | log10 Kd (nM), mean | control signals |
|---|---|---|---|---|---|---|
| GFDINEYGIS | VIYADGRRTFYADSVK | GQNAGTFDS | En_HC | -0.86 -0.21 -0.82 -0.89 -0.91 -1.22 | -0.82 | 0/18 |
| GFDLDEYGIS | VIYADGMRTFYSDSVK | GSTAGTFDV | En_HC | -0.54 -0.46 -0.60 -1.11 -1.04 -0.56 | -0.72 | 0/18 |
| GFDLNEYGIS | VIYADGRRTFYADSVK | GQVAGTFDQ | En_HC | -0.42 -0.45 -0.55 -0.80 -0.70 -0.57 | -0.58 | 0/18 |
| GFKLDEYGIS | VIYADGRRTFYADSVK | GEAAGTFDI | En_HC | -0.16 -0.56 -0.90 -0.84 -0.60 -0.30 | -0.56 | 0/18 |
| GFDLNEYGIS | VIYADGRRTFYADSVK | GNAAGTFDL | En_HC | -0.45 -0.83 -0.28 -0.94 0.25 -0.73 | -0.50 | 0/18 |
| GFDLNEYGIS | VIYADGRRTAYSDSVK | GNTAGTFDQ | En_Gen | -0.44 -0.24 -0.60 -0.69 -0.25 -0.41 | -0.44 | 0/18 |

Source: Li et al. 2023 (doi:10.1038/s41467-023-39022-2), MIT Lincoln Laboratory and A-Alpha Bio; data file from the FLAb repository.